Data taken from BindingDB's records for doi:10.1021/jm030165t (National Center For Genetic Engineering and Biotechnology …, 2004).

Sequences of proteins named here, by UniProt entry; tags and fusion partners are left off. A change or cut given only in a name is not applied to a line headed by its entry.
UniProt P13922: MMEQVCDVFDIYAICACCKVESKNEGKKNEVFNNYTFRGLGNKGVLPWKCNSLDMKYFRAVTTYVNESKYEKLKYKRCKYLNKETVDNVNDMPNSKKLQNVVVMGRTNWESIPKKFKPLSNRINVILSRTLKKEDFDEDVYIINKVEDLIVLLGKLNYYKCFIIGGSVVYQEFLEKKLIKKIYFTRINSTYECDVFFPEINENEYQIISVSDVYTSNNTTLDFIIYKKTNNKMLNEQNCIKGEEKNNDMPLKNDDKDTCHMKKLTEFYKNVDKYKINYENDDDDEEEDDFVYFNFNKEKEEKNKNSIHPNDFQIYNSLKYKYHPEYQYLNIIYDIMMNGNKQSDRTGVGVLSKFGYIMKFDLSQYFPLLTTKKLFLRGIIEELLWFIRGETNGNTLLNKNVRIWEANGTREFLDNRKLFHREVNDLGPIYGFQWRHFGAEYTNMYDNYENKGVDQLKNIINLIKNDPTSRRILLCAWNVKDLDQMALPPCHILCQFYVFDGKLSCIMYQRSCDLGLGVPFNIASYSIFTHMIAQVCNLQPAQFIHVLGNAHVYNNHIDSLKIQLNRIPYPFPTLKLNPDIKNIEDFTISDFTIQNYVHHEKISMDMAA

Columns and labels:
[1] = In vitro anti-plasmodial activity against Plasmodium falciparum dihydrofolate reductase N51I/C59R/S108N (W2)
[2] = In vitro anti-plasmodial activity against Plasmodium falciparum dihydrofolate reductase […]/C59R/S108N/I164L (V1/S) mutant
[3] = target: Bifunctional dihydrofolate reductase-thymidylate synthase (Plasmodium falciparum (isolate K1 / Thailand), UniProt P13922); test: Binding affinity towards wild-type dihydrofolate reductase of Plasmodium falciparum.
[4] = In vitro anti-plasmodial activity against Plasmodium falciparum dihydrofolate reductase wild type (TM4/8.2)
[5] = In vitro anti-plasmodial activity against Plasmodium falciparum dihydrofolate reductase C59R+S108N/I164L (Csl-2) mutant
[6] = In vitro anti-plasmodial activity against Plasmodium falciparum dihydrofolate reductase C59R/S108N (K1CB1) mutant
[7] = In vitro anti-plasmodial activity against Plasmodium falciparum dihydrofolate reductase A16V/S108T (T9/94RC17) mutant

SMILES	IC50 [1] [nM]	IC50 [2] [nM]	Ki [3] [nM]	IC50 [4] [nM]	IC50 [5] [nM]	IC50 [6] [nM]	IC50 [7] [nM]
CC1(C)N=C(N)N=C(N)N1c1cccc(Cl)c1 [1-(3-chlorophenyl)-6,6-dimethyl-1,6-dihydro-1,3,5-triazine-2,4-diamine]	220	1300	3	50	520	220	330
CCCOc1ccc(C2N=C(N)N=C(N)N2c2cccc(Cl)c2)cc1 (stereo not drawn) [1-(3-chlorophenyl)-6-(4-propoxyphenyl)-1,6-dihydro-1,3,5-triazine-2,4-diamine]	–	–	3.3	–	–	–	–
